Assays:
[1] = target: α-1 Adrenoceptors (Rat Aorta) (Rattus norvegicus, UniProt P23944); assay: Functional antagonism at α-1 adrenoceptors, rat aorta
[2] = target: T1, α-1A adrenoreceptor (canine prostate smooth muscle) (Canis lupus, UniProt A0A8I3NK63); assay: Functional antagonism: inhibition of phenylephrine-induced contraction of canine prostate strips; conditions: Schild plot
T1 sequence (A0A8I3NK63 1-466): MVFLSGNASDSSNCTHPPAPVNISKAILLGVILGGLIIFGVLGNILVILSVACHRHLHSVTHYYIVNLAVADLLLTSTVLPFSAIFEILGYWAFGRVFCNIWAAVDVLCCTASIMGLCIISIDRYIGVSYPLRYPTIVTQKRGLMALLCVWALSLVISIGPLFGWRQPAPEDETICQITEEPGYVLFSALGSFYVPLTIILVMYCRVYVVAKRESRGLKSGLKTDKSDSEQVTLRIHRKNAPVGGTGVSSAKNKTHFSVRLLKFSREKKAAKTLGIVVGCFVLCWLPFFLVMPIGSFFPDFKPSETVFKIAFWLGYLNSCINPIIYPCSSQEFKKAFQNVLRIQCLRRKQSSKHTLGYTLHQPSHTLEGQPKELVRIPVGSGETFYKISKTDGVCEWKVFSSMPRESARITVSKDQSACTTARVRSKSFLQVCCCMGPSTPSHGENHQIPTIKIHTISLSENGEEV

Protein sequences, listed by entry. Tags and fused reporters are not part of them.
UniProt P23944, whole entry: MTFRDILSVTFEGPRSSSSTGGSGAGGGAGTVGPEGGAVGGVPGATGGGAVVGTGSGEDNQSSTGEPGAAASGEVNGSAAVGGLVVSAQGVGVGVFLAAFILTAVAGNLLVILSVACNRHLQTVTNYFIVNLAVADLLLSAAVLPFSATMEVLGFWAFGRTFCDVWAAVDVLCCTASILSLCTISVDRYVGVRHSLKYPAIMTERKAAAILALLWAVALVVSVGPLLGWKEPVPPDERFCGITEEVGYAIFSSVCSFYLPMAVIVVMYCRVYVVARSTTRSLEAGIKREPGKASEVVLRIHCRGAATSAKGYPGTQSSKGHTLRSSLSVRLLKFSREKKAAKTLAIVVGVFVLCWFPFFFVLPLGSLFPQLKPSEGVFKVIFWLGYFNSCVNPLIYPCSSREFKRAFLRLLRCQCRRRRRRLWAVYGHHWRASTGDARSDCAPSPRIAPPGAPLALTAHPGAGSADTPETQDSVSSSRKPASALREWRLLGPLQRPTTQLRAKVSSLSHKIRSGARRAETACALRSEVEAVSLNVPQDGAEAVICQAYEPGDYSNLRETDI

Row | Compound | In Vitro Characterization (pA2) Rat Aorta [1] | In Vitro Characterization (pA2) Dog Prostate [2]
1 | COc1cc2nc(N3CCN(C(=O)C4COc5ccccc5O4)CC3)nc(N)c2cc1OC (centres unmarked) [Doxazosin, doxazosin] | 8.97 | 
2 | COc1cc2nc(N3CCN(C(=O)c4ccco4)CC3)nc(N)c2cc1OC [Prazosin, prazosin] |  | 8.46

From patent US5891882A, “Benzopyranopyrrole and benzopyranopyridine α-1 adenergic compounds” (priority 1997, dated 1999)
